Here are results for one protein from ChEMBL document CHEMBL1157700, “Synthesis of 3-[(N-carboalkoxy)ethylamino]-indazole-dione derivatives and their biological activities on human liver carbonyl reductase” (Bioorg Med Chem, 2010).

Details in all cases: Homo sapiens
Substrate in data set [1]: COC(=O)NCCc1n[nH]c2c1C(=O)C=C(Nc1ccccc1OC)C2=O
Substrate in data set [2]: COC(=O)NCCc1n[nH]c2c1C(=O)c1ccccc1C2=O
Substrate in data set [3]: COC(=O)NCCc1n[nH]c2c1C(=O)C=C(Nc1ccccc1)C2=O
Substrate in data set [4]: COC1=CC(=O)c2c(CCNC(=O)OCc3ccccc3)n[nH]c2C1=O
Substrate in data set [5]: COC(=O)NCCc1n[nH]c2c1C(=O)C=C(Nc1ccc(C)cc1)C2=O
Substrate in data set [6]: COC(=O)NCCc1n[nH]c2c1C(=O)C=C(C)C2=O
Substrate in data set [7]: COC(=O)NCCc1n[nH]c2c1C(=O)C=C(OC)C2=O
Substrate in data set [8]: COC(=O)NCCc1n[nH]c2c1C(=O)C=C(Nc1ccc(OC)cc1)C2=O

B1: Carbonyl reductase [NADPH] 1 (Homo sapiens), P16152 (protein)
chain: MSSGIHVALVTGGNKGIGLAIVRDLCRLFSGDVVLTARDVTRGQAAVQQLQAEGLSPRFHQLDIDDLQSIRALRDFLRKEYGGLDVLVNNAGIAFKVADPTPFHIQAEVTMKTNFFGTRDVCTELLPLIKPQGRVVNVSSIMSVRALKSCSPELQQKFRSETITEEELVGLMNKFVEDTKKGVHQKEGWPSSAYGVTKIGVTVLSRIHARKLSEQRKGDKILLNACCPGWVRTDMAGPKATKSPEEGAETPVYLALLPPDAEGPHGQFVSEKRVEQW
Usually kcat/Km stands for the second-order rate constant that governs catalysis at low substrate concentration. As to B1, the kcat/Km in data set [1] came to 3000 M⁻¹ s⁻¹; in data set [2] it was 8200 M⁻¹ s⁻¹; in data set [3] it was 4800 M⁻¹ s⁻¹; in data set [4], 87000 M⁻¹ s⁻¹; in data set [5], 12000 M⁻¹ s⁻¹; in data set [6], 5600 M⁻¹ s⁻¹. Besides, the kcat/Km is 170000 M⁻¹ s⁻¹ in data set [7] and 5100 M⁻¹ s⁻¹ in data set [8].
